Assays:
[1] = biological target: BRG1 (Homo sapiens, UniProt P51532); test: biochemical
[2] = tested on: Uveal melanoma cell lines, 92-1 or MP41; test: 3-day growth inhibition compared with clinical PKC and MEK inhibitors (Example 8); type: cell-based; conditions: 0 to 10 μM, 3 days
[3] = tested on: uveal melanoma, hematologic cancer, prostate cancer, breast cancer, and Ewing's sarcoma cell lines versus the other tested cell lines

By UniProt entry, the sequences of proteins in these tests, tags left out.
UniProt P51532, whole entry: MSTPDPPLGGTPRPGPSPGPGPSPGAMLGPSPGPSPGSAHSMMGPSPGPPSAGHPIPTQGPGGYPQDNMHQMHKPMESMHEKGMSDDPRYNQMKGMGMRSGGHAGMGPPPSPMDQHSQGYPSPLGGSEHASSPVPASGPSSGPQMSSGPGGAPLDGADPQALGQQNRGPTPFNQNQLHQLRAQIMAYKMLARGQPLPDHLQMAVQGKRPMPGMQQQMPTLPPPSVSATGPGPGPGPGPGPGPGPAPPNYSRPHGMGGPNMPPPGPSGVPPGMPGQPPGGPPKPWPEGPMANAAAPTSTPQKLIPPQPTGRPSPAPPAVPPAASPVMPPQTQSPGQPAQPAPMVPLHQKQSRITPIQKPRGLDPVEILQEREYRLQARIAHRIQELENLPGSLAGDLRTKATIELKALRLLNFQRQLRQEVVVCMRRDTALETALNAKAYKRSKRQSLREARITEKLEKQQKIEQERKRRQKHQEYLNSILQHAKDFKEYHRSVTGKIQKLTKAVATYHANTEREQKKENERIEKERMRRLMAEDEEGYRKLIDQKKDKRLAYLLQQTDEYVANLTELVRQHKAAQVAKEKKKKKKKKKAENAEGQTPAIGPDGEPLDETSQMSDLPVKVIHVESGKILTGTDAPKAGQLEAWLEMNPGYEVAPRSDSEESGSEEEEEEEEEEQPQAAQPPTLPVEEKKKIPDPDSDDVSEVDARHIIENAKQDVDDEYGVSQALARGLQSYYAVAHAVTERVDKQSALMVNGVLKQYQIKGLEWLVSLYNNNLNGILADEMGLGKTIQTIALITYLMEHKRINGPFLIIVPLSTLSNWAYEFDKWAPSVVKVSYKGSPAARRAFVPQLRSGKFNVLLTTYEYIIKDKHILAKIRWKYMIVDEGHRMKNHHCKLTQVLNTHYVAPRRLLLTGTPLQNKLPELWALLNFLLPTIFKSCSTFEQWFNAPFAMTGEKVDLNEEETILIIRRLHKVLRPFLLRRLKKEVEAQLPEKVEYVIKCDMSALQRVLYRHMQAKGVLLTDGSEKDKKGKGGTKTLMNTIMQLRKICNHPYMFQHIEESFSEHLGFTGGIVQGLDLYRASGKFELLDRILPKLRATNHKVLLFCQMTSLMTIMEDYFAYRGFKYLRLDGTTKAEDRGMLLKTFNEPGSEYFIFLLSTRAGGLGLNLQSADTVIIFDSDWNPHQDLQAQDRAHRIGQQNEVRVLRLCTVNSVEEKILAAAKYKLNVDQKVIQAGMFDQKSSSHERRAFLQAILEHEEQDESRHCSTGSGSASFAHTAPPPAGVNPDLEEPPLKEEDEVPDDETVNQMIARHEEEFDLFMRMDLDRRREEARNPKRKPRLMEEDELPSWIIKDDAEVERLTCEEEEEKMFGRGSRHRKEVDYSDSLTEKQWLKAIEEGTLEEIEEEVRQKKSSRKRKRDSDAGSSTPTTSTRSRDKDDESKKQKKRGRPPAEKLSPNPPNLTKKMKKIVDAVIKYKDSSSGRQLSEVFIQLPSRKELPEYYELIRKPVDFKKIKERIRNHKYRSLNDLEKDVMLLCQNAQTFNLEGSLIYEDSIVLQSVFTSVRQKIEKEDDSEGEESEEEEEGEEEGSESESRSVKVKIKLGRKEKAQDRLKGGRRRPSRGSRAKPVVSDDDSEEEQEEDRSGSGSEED

IC50 [1]	SMILES	other results
777 nM	[2H]C([2H])([2H])OC([2H])([2H])[C@@H](NC(=O)c1ccn(S(C)(=O)=O)c1)C(=O)Nc1nc(-c2cccc(N3C[C@@H](C)O[C@@H](C)C3)n2)cs1 [N—((R)-1-((4-(6-(cis-2,6-dimethylmorpholino)pyridin-2-yl)thiazol-2-yl)amino)-3-(methoxy-d3)-1-oxopropan-2-yl-3,3-d2)-1-(methylsulfonyl)-1H-pyrrole-3-carboxamide]	–
–	CSCC[C@H](NC(=O)c1ccc(N)cc1)C(=O)Nc1nc(-c2cccc(-c3ccncc3)c2)cs1 [Compound A]	growth inhibition relative to clinical PKC (LXS196) and MEK (Selumetinib) inhibitors (FIG. 2, FIG. 3) [2]: comparable growth inhibition of uveal melanoma cells as the clinical PKC and MEK inhibitors; onset of inhibition relative to clinical PKC and MEK inhibitors [2]: faster onset of inhibition than the clinical PKC and MEK inhibitors
7.4 nM	[2H]C([2H])([2H])OC([2H])([2H])[C@H](NC(=O)c1ccn(S(C)(=O)=O)c1)C(=O)Nc1nc(-c2cccc(N3C[C@@H](C)O[C@@H](C)C3)n2)cs1 [N—((S)-1-((4-(6-(cis-2,6-dimethylmorpholino)pyridin-2-yl)thiazol-2-yl)amino)-3-(methoxy-d3)-1-oxopropan-2-yl-3,3-d2)-1-(methylsulfonyl)-1H-pyrrole-3-carboxamide]	–
–	CSCC[C@H](NC(=O)c1ccn(S(C)(=O)=O)c1)C(=O)Nc1nc(-c2cccc(-c3ccncc3)c2)cs1 [Compound B]	duration of growth inhibition [3]: maintained through day 7

SMILES	IC50 [1]	other results
COC[C@H](NC(=O)c1ccn(S(C)(=O)=O)c1)C(=O)Nc1nc(-c2cccc(N3C[C@@H](C)O[C@@H](C)C3)n2)cs1 [N—((S)-1-((4-(6-(cis-2,6-dimethylmorpholino)pyridin-2-yl)thiazol-2-yl)amino)-3-methoxy-1-oxopropan-2-yl)-1-(methylsulfonyl)-1H-pyrrole-3-carboxamide]	5.2 nM	–
